Data on one molecule can be found in US20260103665A1, “Synovium-on-a-Chip” (New York University, priority 2022, published 2026).

“Also recorded” adds a separate entry of the source.

The assay deals with CD14+ monocytes. Briefly: monocyte phenotype profiling, CD16 expression. The format is cell-based, human. Conditions: IFN-β primed CD14+ monocytes versus without IFN-β priming. The text has this:
Following the established inflammation in the RA chip, work pivoted to whether the RA inflammation can be maintained on-chip for a long period. The RA chip cultured for over 4 days and quantified inflammatory cytokines secretion with IL-6 and GM-CSF as indicator. […] It was previously shown that pre-treatment circulating type I IFN (T1IFN) activity predicts non-response to TNFi (Wampler-Muskardin et al., Front Immunol, 2020). Remarkably, no patient with a ratio >1.3 achieved remission or low disease activity. It is also possible to use single cell gene expression analysis to study blood monocytes in RA patients with high vs. low IFN-β-to-α activity ratio. […] Further on, the behaviors of monocytes in the RA chip are investigated by infusing monocytes into the central sinus of the chip, from which monocytes can distribute into the microvessel network and extravasate out of vessel. […] In addition, the effect of circulating T1IFNs on monocyte activation in the RA chip was studied.
To confirm the role of TNF-α in regulating the RA inflammation, monitored first is monocyte dynamics in the RA device which is primed with or without TNF-α. […] Previously, the biology of non-classical and classical monocytes was examined from RA patients defined by their pre-biologic treatment T1IFN activity.

B1: IFN-β: type I interferon used to prime monocytes (protein, UniProt P01574 22-187, looked up)
Interferon beta: MSYNLLGFLQRSSNFQCQKLLWQLNGRLEYCLKDRMNFDIPEEIKQLQQFQKEDAALTIYEMLQNIFAIFRQDSSSTGWNETIVENLLANVYHQINHLKTVLEEKLEKEDFTRGKLMSSLHLKRYYGRILHYLKAKEYSHCAWTIVRVEILRNFYFINRLTGYLRN
Regarding B1, the “CD16 expression on monocytes” value is listed as “may suppress CD16 expression; also recorded: lower expression of CD16”.
